# How the values were obtained:
# human organism [1] = assay: self-administration under the tongue, symptoms and duration of vasodilatory effect; conditions: inventor themself
# human organism [2] = assay: self-administration of taurine against arrhythmias; conditions: inventor themself
compound,measurement,setting,value
O=[N+]([O-])OCC(CO[N+](=O)[O-])O[N+](=O)[O-],duration of similar effect,human organism [1],7 to 8 min
same,maximum duration of similar effect,human organism [1],≤ 15 min
NCCS(=O)(=O)O,effect on arrhythmias,human organism [2]; 250 mg of taurine in conjunction with magnesium and calcium,arrhythmias could be alleviated wholly
same,recurrence of arrhythmia,human organism [2]; one 250 mg tablet of taurine on a weekly basis,have not suffered such arrhythmia for several years
isethionic nitrate,symptoms when placed under the tongue,"human organism [1]; diluted in approximately 100 times its volume of 190 proof grain alcohol, sublingual",promptly caused the same symptoms as a small amount of glyceryl trinitrate
same,duration of effect,human organism [1]; sublingual,about 1 hour
same,temperature at which the material begins to discolor when heated,discoloration on heating,about 70 degrees C.

# Source: US20060293384A1, “Isethionyl nitrates and compounds thereof” (published 2006)
